Test results taken from patent publication US20250177359A1, “COMPOUNDS FOR USE IN THE TREATMENT OF CANCER AND INFLAMMATORY CONDITIONS” (priority 2022, published 2025).

By UniProt entry, the sequences of proteins in these tests, tags left out. Where a name states a change or a piece, a line headed by the entry shows the natural chain unless it says otherwise.
UniProt Q9UGN5: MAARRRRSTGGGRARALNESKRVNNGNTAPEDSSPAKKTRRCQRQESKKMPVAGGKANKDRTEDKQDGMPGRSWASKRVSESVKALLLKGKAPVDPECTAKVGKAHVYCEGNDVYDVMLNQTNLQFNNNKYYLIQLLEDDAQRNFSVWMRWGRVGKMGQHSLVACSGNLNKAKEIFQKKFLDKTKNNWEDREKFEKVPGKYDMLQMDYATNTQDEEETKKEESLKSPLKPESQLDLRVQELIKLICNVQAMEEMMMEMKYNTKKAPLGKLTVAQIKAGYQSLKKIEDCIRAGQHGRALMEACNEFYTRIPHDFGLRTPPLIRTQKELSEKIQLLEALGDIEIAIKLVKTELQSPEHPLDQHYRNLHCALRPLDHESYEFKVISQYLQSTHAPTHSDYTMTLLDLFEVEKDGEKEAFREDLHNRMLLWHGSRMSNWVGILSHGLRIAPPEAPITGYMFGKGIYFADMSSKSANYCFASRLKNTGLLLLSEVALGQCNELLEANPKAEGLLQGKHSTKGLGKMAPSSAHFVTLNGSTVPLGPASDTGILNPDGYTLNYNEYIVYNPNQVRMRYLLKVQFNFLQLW

Tests used:
[1] = target: T1, PARP10 (Homo sapiens, UniProt Q53GL7); test: Activity assay measuring NAD+ consumption, PARP10 (Tables 1-3); assay type: biochemical
T1 construct: made in house
T1 sequence (Q53GL7 1-1025): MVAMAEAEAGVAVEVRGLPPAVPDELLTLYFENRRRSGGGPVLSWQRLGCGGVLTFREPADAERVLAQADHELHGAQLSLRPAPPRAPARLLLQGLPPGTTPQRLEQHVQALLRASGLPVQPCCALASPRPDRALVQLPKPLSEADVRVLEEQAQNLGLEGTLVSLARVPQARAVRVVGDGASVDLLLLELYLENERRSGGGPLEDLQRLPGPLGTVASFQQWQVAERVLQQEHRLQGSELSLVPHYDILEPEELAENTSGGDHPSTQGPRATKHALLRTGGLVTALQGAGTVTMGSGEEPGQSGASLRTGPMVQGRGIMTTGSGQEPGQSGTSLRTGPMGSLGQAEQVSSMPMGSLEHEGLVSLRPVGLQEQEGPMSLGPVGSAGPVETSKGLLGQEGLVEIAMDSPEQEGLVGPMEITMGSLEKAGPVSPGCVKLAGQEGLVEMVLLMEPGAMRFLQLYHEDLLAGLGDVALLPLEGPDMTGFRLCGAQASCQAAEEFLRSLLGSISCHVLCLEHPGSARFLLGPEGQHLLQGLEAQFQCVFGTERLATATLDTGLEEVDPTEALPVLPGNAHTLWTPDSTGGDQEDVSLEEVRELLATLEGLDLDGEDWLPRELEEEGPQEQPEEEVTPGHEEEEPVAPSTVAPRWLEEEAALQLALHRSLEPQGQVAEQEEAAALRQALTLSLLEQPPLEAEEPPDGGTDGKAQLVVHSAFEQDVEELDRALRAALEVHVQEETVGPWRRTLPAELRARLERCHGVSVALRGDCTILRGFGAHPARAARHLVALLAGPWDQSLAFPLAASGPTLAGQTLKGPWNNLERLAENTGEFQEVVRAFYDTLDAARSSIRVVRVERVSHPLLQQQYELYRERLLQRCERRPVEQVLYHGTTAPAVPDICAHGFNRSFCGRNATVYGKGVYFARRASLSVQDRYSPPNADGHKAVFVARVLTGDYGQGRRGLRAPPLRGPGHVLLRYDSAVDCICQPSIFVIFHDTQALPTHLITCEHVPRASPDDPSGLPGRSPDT

[2] = target: T2, PARP15 (Homo sapiens, UniProt Q460N3); test: biochemical
T2 sequence (Q460N3 1-678): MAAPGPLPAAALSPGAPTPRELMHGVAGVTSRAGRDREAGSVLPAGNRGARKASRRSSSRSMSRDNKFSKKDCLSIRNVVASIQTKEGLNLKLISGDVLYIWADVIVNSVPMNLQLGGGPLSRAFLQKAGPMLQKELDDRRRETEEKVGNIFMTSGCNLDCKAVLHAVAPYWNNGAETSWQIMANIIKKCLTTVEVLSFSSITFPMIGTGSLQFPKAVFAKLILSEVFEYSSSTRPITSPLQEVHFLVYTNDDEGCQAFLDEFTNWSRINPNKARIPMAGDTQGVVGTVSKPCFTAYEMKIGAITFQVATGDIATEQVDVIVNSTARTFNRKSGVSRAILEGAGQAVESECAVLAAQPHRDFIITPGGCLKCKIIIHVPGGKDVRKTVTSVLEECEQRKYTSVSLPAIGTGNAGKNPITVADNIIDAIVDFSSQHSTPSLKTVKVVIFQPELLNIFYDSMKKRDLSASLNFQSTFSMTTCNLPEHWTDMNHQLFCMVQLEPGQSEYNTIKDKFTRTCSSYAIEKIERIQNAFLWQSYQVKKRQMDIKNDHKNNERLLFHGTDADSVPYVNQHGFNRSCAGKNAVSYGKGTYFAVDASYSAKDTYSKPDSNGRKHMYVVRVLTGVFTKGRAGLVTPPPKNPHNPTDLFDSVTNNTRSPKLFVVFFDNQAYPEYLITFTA
Procedure: (§1) All starting materials, reagents, and solvents were purchased from common commercial suppliers and were used as such without further purification. […] Organic solutions were dried over anhydrous Na2SO4 and concentrated with rotary evaporator at low pressure. All the reactions were routinely checked by thin-layer chromatography (TLC) on silica gel 60F254 (Merck) and visualized by using UV and iodine. Flash chromatography separations were carried out on Merck silica gel 60 (mesh 230-400) or by using automated Buchi Reveleris X2-UV with column FP Ecoflex Si 12 g. Yields were of purified products and were not optimized. ^1HNMR spectra were recorded at 400 MHz (Bruker Avance DRX-400), while ^13CNMR spectra were recorded at 101 MHz (Bruker Avance DRX-400). Chemical shifts are given in ppm (δ) relative to TMS. […] Mating constant (J) are reported in Hz. The purity of the tested compounds was evaluated by HPLC analysis using Jasco LC-4000 instrument equipped with a UV-Visible Diode Array Jasco-MD4015 (Jasco Corporation, Tokyo, Japan), and XTerra MS C18 column, 5 μm×4.6 mm×150 mm (Waters Corporation, Massachusetts, USA). Chromatograms were analyzed by ChromNAV2.0 Chromatography Data System software. […] The peak retention time (ret. time) is given in minutes. […] 1-Isobutoxy-4-methoxy-2-nitrobenzene (113). Isobutyl alcohol (0.6 mL, 6.43 mmol) was added, under nitrogen atmosphere at 0° C., to a suspension of NaH (0.26 g, 6.43 mmol) in dry DMF. After 15 minutes, 1-fluoro-4-methoxy-2-nitrobenzene 112 (1 g, 5.84 mmol) was also added and the reaction mixture was stirred at 80° C. for 4 h. […] (2-Isobutoxy-5-methoxyphenyl)amine (114). Zn (1.57 g, 24 mmol) and NH4C1 (2.45 g, 40 mmol) were added to a solution of 113 (0.46 g, 2 mmol) in acetone/H2O (50 mL, ratio 5:1). The reaction mixture was stirred at 60° C. for 3 h and, then, it was filtered over celite. […] N-(2,5-diethoxyphenyl)thiourea (55). […] N-(2-isobutoxy-5-methoxyphenyl)thiourea (115). […] A solution of Br2 (0.2 mL, 3.3 mmol) in CHCl3 (5 mL) was slowly added to a suspension of 45 (0.6 g, 3.3 mmol) in CHCl3 (13 mL), at 0° C. The reaction mixture was stirred at r.t. for 4 h and, then, a 10% solution of Na2SO3 in water was added to the mixture. […] 4,7-Diethoxy-1,3-benzothiazol-2-amine (66). […] 4-Isobutoxy-7-methoxy-1,3-benzothiazol-2-amine (116).

[3] = target: T3, PARP2 (Homo sapiens, UniProt Q9UGN5); assay type: biochemical; conditions: NAD+ consumption assay; > less than 50% inhibition at highest concentration, >> no inhibition
T3 construct: made in house
Procedure: as §1

[4] = PARP10 IC50, Tables 1-3 assay, > less than 50% inhibition, >> no inhibition at reported concentration, * value limited by protein concentration
[5] = Tables 1-3 assay, > less than 50% inhibition, >> no inhibition at reported concentration, * value limited by protein concentration, read-out: PARP10 IC50
[6] = read-out: PARP15 IC50, Tables 1-3 assay, > less than 50% inhibition, >> no inhibition at reported concentration, * value limited by protein concentration

Structure (SMILES)	pIC50 [1, 5]	pIC50 [2, 6]	further results
Oc1cccc2c1sc1nncn12 [Compound 18, [1,2,4]Triazolo[3,4-b][1,3]benzothiazol-8-ol]	–	–	pIC50 [1, 4]: < 5.00; PARP15 pIC50 ± SEM ([2]; Tables 1-3 assay): (5.33 ± 0.11)
COc1ccc(OC)c2c1sc1nnc(S)n12 [Compound 26, 5,8-Dimethoxy[1,2,4]triazolo[3,4-b][1,3]benzothiazole-3(2H)-thione]	–	–	pIC50 [1, 4]: < 5.00; pIC50 [2]: < 5.00
Oc1ccc(O)c2c1sc1nncn12 [Compound 17, [1,2,4]Triazolo[3,4-b][1,3]benzothiazol-5,8-diol]	6.49	6.54	PARP10 pIC50 ± SEM ([1]; Tables 1-3 assay): (6.50 ± 0.04)
Clc1ccc2c(c1)sc1nncn12 [Compound 9]	–	5.15	pIC50 [1, 4]: < 5.00
COc1ccc(OC)c2c1SC1=NNC(SC)N12 (stereo not drawn) [Compound 27, 5,8-Dimethoxy-3-(methylthio)-2,3-dihydro[1,2,4]triazolo[3,4-b][1,3]benzothiazole]	–	–	pIC50 [3]: 5.08
Cc1ccc2c(c1)sc1nncn12 [Compound 105]	–	–	pIC50 [1, 4]: < 5.00; pIC50 [2]: < 5.00
Cc1ccc2sc3nncn3c2c1 [Compound 5, 6-Methyl[1,2,4]triazolo[3,4-b][1,3]benzothiazole]	–	5.18	–
COc1cccc2sc3nncn3c12 [Compound 15, 5-Methoxy[1,2,4]triazolo[3,4-b][1,3]benzothiazole]	5.29	–	PARP10 pIC50 ± SEM ([1]; Tables 1-3 assay): (5.30 ± 0.15)
Cc1cccc2c1sc1nncn12 [Compound 6, 8-Methyl[1,2,4]triazolo[3,4-b][1,3]benzothiazole]	5.47	5.15	–
COc1ccc(OC)c2c1sc1nncn12 [Compound 13, 5,8-Dimethoxy[1,2,4]triazolo[3,4-b][1,3]benzothiazole]	–	5.80	pIC50 ([1]; Tables 1-3 assay, read-out: PARP10 IC50): 6.31
Cc1cc(C)c2c(c1)sc1nncn12 [Compound 2]	5.77	–	PARP15 pIC50 ± SEM ([2]; Tables 1-3 assay): (6.11 ± 0.10)
COc1cc(OC)c2sc3nncn3c2c1 [Compound 16, 6,8-Dimethoxy[1,2,4]triazolo[3,4-b][1,3]benzothiazole]	5.96	5.80	–
Cc1ccc2c(c1)sc1nnc(SCc3ccc(Cl)cc3)n12 [Compound 23, 3-[(4-Chlorobenzyl)thio]-7-methyl[1,2,4]triazolo[3,4-b][1,3]benzothiazole]	–	–	pIC50 [1, 4]: < 5.00; pIC50 [2]: < 5.00
COc1cccc2c1sc1nncn12 [Compound 14, 8-Methoxy[1,2,4]triazolo[3,4-b][1,3]benzothiazole]	5.72	5.92	PARP10 pIC50 ± SEM ([1]; Tables 1-3 assay): (5.71 ± 0.04); PARP15 pIC50 ± SEM ([2]; Tables 1-3 assay): (5.93 ± 0.16)
CC(C)c1ccc2c(c1)sc1nncn12 [Compound 8, 7-Isopropyl[1,2,4]triazolo[3,4-b][1,3]benzothiazole]	–	5.41	PARP10 pIC50 ± SEM ([1]; Tables 1-3 assay): (5.26 ± 0.08)
CSc1nnc2sc3cc(C)ccc3n12 [Compound 21, 7-Methyl-3-(methylthio)[1,2,4]triazolo[3,4-b][1,3]benzothiazole]	5.43	–	PARP10 pIC50 ± SEM ([1]; Tables 1-3 assay): 5.45 ± 0.54; pIC50 [2]: < 5.00
Cc1ccc2c(c1)sc1nnc(NCc3ccc(Cl)cc3)n12 [Compound 24, N-(4-chlorobenzyl)-7-methyl[1,2,4]triazolo[3,4-b][1,3]benzothiazol-3-amine]	–	–	pIC50 [1, 4]: < 5.00; pIC50 [2]: < 5.00
Cc1ccc2c(c1)sc1nncn12 [Compound 1]	5.49	5.49	–
Cc1ccc2c(c1)sc1nnc(/N=C\c3ccc(Cl)cc3)n12 [Compound 25, N-[(1Z)-(4-chlorophenyl)methylene]-7-methyl[1,2,4]triazolo[3,4-b][1,3]benzothiazol-3-amine]	–	5.10	pIC50 [1, 4]: < 5.00
COc1ccc2sc3nncn3c2c1 [Compound 11, 6-Methoxy[1,2,4]triazolo[3,4-b][1,3]benzothiazole]	5.74	5.15	–
Cc1ccc(F)c2c1sc1nncn12 [Compound 4, 5-Fluoro-8-methyl[1,2,4]triazolo[3,4-b][1,3]benzothiazole]	5.30	5.16	–
Cc1ccc2c(c1)sc1nnc(S)n12 [Compound 20]	5.82	–	PARP10 pIC50 ± SEM ([1]; Tables 1-3 assay): (5.81 ± 0.10)
COc1ccc2c(c1)sc1nncn12 [Compound 12]	5.19	5.40	–
Cc1ccc2c(c1)sc1nnc(O)n12 [Compound 19]	5.27	–	–
CCc1ccc2c(c1)sc1nncn12 [Compound 7, 7-Ethyl[1,2,4]triazolo[3,4-b][1,3]benzothiazole]	–	5.70	PARP10 pIC50 ± SEM ([1]; Tables 1-3 assay): (5.31 ± 0.10)

pIC50: −log10 of the molar value. Where two headings read alike, the source gives them in different places.
